Data set [1] has as its target human HPK1 (Homo sapiens (Human), UniProt Q92918). Description: Kinase activity assay using ADP-Glo method (Method 2). As to conditions: read-out: HPK1 IC50, ATP concentration 10 μM, tested form: TFA. The data set is classed as biochemical. In general terms: In ADP-Glo the light output rises with the ADP produced.
The subject of data set [2] is SLP76 phosphorylation in Jurkat cells. Description: Inhibition of SLP76 phosphorylation in Jurkat cells. As to conditions: read-out: IC50 (inhibition of SLP76 phosphorylation), anti-CD3 antibody 10 μg/mL, tested form: TFA.
Data set [3] can be described thus: In vitro metabolic stability in human liver microsomes. As to conditions: 1 μM compound, 0.5 mg/mL protein, tested form: TFA. (In general: Microsomes from liver hold many membrane-bound enzymes, among them those of drug oxidation.)
Data set [4] concerns MDR1-MDCK II cell line. Description: Permeability evaluation in MDR1-MDCK II cells. As to conditions: tested form: TFA; for Efflux ratio / Permeability Papp A to B / Permeability Papp B to A: 2.00 μM, 150 minutes; for Conclusion of the permeability: class by Papp.
Data set [5] is described as follows: Pharmacokinetic evaluation in mice. The settings on record: tested form: TFA.
Setting [6] is: HPK1 enzyme concentration 0.05 nM.

Amino acid sequences for entries named in this document (tags omitted).
UniProt Q92918, whole entry: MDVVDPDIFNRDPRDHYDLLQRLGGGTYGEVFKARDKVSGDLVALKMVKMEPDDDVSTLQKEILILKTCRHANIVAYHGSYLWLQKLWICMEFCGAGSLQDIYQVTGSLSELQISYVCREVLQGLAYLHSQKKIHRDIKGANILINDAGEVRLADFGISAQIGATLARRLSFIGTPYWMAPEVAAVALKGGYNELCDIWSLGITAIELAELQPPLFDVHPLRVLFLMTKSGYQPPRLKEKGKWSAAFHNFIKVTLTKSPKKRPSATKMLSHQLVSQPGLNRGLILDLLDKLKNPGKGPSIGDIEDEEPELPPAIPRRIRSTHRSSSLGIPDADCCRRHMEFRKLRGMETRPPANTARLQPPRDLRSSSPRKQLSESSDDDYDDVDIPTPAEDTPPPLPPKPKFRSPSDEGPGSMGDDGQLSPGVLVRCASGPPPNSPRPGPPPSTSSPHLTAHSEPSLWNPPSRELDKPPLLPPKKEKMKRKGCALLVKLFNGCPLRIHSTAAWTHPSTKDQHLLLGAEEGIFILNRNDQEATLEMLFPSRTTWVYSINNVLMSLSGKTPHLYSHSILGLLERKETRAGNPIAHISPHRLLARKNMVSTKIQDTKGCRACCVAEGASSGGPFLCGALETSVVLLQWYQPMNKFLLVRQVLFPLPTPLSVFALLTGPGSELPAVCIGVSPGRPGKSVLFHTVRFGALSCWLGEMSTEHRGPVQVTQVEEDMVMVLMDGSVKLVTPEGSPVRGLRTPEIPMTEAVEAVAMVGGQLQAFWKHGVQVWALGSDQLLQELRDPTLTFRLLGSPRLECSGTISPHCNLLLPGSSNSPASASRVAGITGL

Read-outs that look alike come from different tables or passages of the source.

As to `CCN1Cc2nc(Nc3ccc(-c4ccnc5c4ccn5C)c4c3C(=O)NC4)ccc2N2CCOCC2C1` (stereo not drawn), the IC50 in data set [1] (HPK1 enzyme concentration 0.3 nM) came out at 0.3 nM.
Consider `CN1Cc2nc(Nc3cnc(-c4cnc5cc(F)ccn45)c4c3C(=O)NC4)ccc2N2CCOCC2C1` (stereo not drawn), for which the IC50 in data set [2] amounted to 138 nM.
On the same count and under the same terms, the figure for `Cn1ccc2c(-c3ccc(Nc4ccc5c(n4)CNCC4COCCN54)c4c3CNC4=O)ccnc21` (stereo not drawn) is 75 nM.
Take `[2H]C([2H])([2H])n1ccc2c(-c3ncc(Nc4ccc5c(n4)OC[C@@H]4COCCN54)c4c3CNC4=O)ccnc21`: in data set [2], the IC50 stood at 268 nM. Moreover, in data set [3], the “CLint(liver)” value was 28 mL/min/kg and the T1/2 was found to be 44 min.
`O=C1NCc2c(-c3cnc4cc(F)ccn34)ccc(Nc3ccc4c(n3)OC[C@@H]3COCC[C@H]43)c21` (relative stereo): in data set [3], the “CLint(liver)” value was determined as 64 mL/min/kg and the T1/2 was determined as 20 min. Further, in data set [4], the Efflux ratio came to 5.39, the “Permeability Papp A to B” value is 3.35 10^−6 cm/s, the “Permeability Papp B to A” value is 18.05 10^−6 cm/s and the “Conclusion of the permeability” value is given as “Medium (Medium permeability 1.0 < Papp < 5.5 (×10^−6 cm/s))”.
For the molecule `O=C1NCc2c(-c3cnc4cc(F)ccn34)ccc(Nc3ccc4c(n3)OC[C@H]3COC[C@@H]43)c21` (relative stereo), in data set [3], the “CLint(liver)” value is 54 mL/min/kg and the T1/2 worked out at 23 min.
For `CN1Cc2nc(Nc3cnc(-c4ccnc5c4ccn5C)c4c3C(=O)NC4)ccc2N2CCOCC2C1` (single isomer, unassigned) [Trifluoroacetate of compound 24-3], in data set [5] (IV 2 mg/kg), the AUC0-inf turned out to be 0.633 µM·h, the AUC0-last is 0.63 µM·h, the C0 came to 2.23 µM and the Cl turned out to be 145 mL/min/kg. In data set [5] (IV 2 mg/kg), this molecule had a T1/2 of 24 min, a Tlast of 4 h and a Vdss of 3.2 L/kg. Moreover, in data set [5] (PO 75 mg/kg vs IV 2 mg/kg, calculated using AUC0-last), the “F (%)” value is 42%. Also, in data set [5] (PO 75 mg/kg), the AUC0-inf came out at 9.971 µM·h, the AUC0-last amounted to 9.936 µM·h, the Cmax was found to be 4.33 µM and the T1/2 stood at 54 min. Besides, in data set [5] (PO 75 mg/kg), the Tlast turned out to be 8 h and the Tmax came out at 60 min. In data set [2], the IC50 was determined as 64 nM. For the same molecule, in data set [3], the “CLint(liver)” value came to 58 mL/min/kg and the T1/2 turned out to be 21 min. Moreover, in data set [4], the Efflux ratio came out at 12.4, the “Permeability Papp A to B” value is recorded as 2.31 10^−6 cm/s, the “Permeability Papp B to A” value is reported as 28.60 10^−6 cm/s and the “Conclusion of the permeability” value is given as “Medium (Medium permeability 1.0 < Papp < 5.5 (×10^−6 cm/s))”.
With `CN1Cc2nc(Nc3cnc(-c4ccnc5c4ccn5C)c4c3C(=O)NC4)ccc2N2CCOCC2C1` (single isomer, unassigned) [Trifluoroacetate of compound 24], in data set [3], the “CLint(liver)” value turned out to be 58 mL/min/kg and the T1/2 was determined as 21 min.
Regarding `CN1Cc2nc(Nc3cnc(-c4ccnc5c4ccn5C)c4c3C(=O)NC4)ccc2N2CCOCC2C1` (single isomer, unassigned) [Trifluoroacetate of compound 40], in data set [3], the “CLint(liver)” value stood at 68 mL/min/kg and the T1/2 stood at 18 min.
`[2H]C([2H])([2H])n1ccc2c(-c3ncc(Nc4ccc5c(n4)CN(C)CC4COCCN54)c4c3CNC4=O)ccnc21` (single isomer, unassigned) [Trifluoroacetate of compound 54-2]: the IC50 in data set [2] is 116 nM. Further, in data set [3], the “CLint(liver)” value was found to be 40 mL/min/kg and the T1/2 was found to be 32 min.
Regarding `[2H]C([2H])([2H])n1ccc2c(-c3ncc(Nc4ccc5c(n4)CN(C)CC4COCCN54)c4c3CNC4=O)ccnc21` (single isomer, unassigned) [Trifluoroacetate of compound 54], in data set [3], the “CLint(liver)” value amounted to 66 mL/min/kg and the T1/2 stood at 19 min. The IC50 in data set [1] (setting [6]) came out at 0.41 nM.
The corresponding values for `[2H]C([2H])([2H])n1ccc2c(-c3ncc(Nc4ccc5c(n4)CN(C)CC4COCCN54)c4c3CNC4=O)ccnc21` (single isomer, unassigned) [Trifluoroacetate of compound 57] are 49 mL/min/kg, 25 min and 0.38 nM.

By Vdss is commonly meant a proportionality between amount in the body and measured concentration, not a real space. A high value points to wide distribution into tissue. What is called Cmax is the highest concentration seen after dosing. In general, Tmax refers to the time from dosing to the highest level.

The values above are taken from patent publication US20250282798A1, “HETEROARYL-SUBSTITUTED BICYCLIC COMPOUND AND USE THEREOF” (Medshine Discovery Inc., priority 2022, published 2025).
